Measurements: patent publication US10052392B2, “Low molecular weight polyethylene glycol drug conjugates having improved drug biological activity” (JENKEM TECHNOLOGY CO., LTD. (TIANJIN), priority 2013, dated 2018)

Assays:
Caco-2 cell monolayer = Caco-2 cell monolayer transmembrane transport (unidirectional and bidirectional)
SUP-B15 = assay: Inhibition of cell proliferation, CTG method, 72 hours; format: cell-based; conditions: SUP-B15 cells
Protocol: (§1) Cells are cultured under a complete culture medium; when cells are attached to the wall, drug of different concentrations is added in each tumor cell line for treatment, and a positive control, a blank control and a solvent control are set. Cells are incubated for 72 hours and then CTG method is used for detection.

KU812 = assay: as above; format: cell-based; conditions: KU812 cells
Protocol: as §1

K562 = assay: as above; format: cell-based; conditions: K562 cells
Protocol: as §1

PC-3 = assay: as above; format: cell-based; conditions: PC-3 cells
Protocol: as §1

`COCCOCCOCCOCCOCCOCCN1CCN(c2cc(Nc3ncc(C(=O)Nc4c(C)cccc4Cl)s3)nc(C)n2)CC1` [DSTN-51, Methoxyl Pentaethylene Glycol-dasatinib] was tested, and the “Papp (*10^−6)A→B” value (Caco-2 cell monolayer; Caco-2, A→B, 90 min incubation) was 8.55 ± 2.29 *10^−6 cm/s, the “Papp (*10^−6)B→A” value (Caco-2 cell monolayer; Caco-2, B→A, 90 min incubation) was 23.91 ± 1.24 *10^−6 cm/s and the “Papp (B→A)/Papp (A→B)” value (Caco-2 cell monolayer; Caco-2 efflux ratio, >2 suggests efflux transporter) was 2.80. The IC50 (SUP-B15) was 170 nM, the Maximum inhibition rate (SUP-B15) was 91.39% and the IC50 (KU812) was 0.5 nM. It also gave a Maximum inhibition rate (KU812) of 96.47%, an IC50 (K562) of 2.22 nM and a Maximum inhibition rate (K562) of 79.04%. The Maximum inhibition rate (PC-3) was 56.67% and the IC50 (PC-3; “—” indicates that IC50 value cannot be calculated) was 83100 nM.
